From patent US12004868B2, “Liposomal mitigation of drug-induced inhibition of the cardiac IKr channel” (Signpath Pharma, Inc., priority 2011, dated 2024)

Amino acid sequences for entries named in this document (tags omitted). A change or cut given only in a name is not applied to a line headed by its entry.
UniProt Q12809: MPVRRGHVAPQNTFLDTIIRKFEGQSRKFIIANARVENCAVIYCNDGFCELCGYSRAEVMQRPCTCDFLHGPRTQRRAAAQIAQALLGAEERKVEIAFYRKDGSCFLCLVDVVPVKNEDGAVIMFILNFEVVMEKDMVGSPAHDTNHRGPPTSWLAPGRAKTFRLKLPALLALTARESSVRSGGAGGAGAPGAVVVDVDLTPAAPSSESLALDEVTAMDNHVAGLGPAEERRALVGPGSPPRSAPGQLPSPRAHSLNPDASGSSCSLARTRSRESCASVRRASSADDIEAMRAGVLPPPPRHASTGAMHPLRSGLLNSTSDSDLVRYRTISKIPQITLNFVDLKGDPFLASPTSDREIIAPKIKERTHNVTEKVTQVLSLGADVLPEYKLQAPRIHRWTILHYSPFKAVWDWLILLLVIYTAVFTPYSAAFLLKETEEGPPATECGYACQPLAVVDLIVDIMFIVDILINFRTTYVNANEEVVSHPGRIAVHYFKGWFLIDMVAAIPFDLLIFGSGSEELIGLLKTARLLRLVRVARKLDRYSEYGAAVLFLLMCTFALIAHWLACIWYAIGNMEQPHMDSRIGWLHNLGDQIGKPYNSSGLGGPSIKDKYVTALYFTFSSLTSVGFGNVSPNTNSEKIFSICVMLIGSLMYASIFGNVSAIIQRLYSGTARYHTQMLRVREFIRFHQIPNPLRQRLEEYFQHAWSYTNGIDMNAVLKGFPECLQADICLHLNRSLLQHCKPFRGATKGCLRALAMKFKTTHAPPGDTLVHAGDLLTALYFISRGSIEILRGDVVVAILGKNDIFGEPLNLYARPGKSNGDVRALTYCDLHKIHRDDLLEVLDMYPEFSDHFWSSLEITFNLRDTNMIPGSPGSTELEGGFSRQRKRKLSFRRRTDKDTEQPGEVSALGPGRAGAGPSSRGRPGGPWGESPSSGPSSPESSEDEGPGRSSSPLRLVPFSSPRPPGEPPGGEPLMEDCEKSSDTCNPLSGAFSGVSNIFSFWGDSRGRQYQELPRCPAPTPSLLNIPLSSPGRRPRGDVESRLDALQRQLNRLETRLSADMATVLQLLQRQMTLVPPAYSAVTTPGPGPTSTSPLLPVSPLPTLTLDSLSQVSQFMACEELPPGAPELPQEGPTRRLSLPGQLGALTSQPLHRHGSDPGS

Tests used:
hERG = hERG (Homo sapiens, UniProt Q12809); conditions: cited from earlier work
[1] = dose related; cited from earlier work
IKr channel (hERG) = IKr channel (hERG) (Homo sapiens, UniProt Q12809)
IKr = IKr (Homo sapiens, UniProt Q12809); conditions: read-out: IKr IC50 (Doherty et al); literature; cited from earlier work

## CC(C)COCC(CN(Cc1ccccc1)c1ccccc1)N1CCCC1 (centres unmarked) [Bepridil]
hERG; read-out: hERG inhibitory EC50, literature
  EC50: 550 nM

## CN(CCOc1ccc(NS(C)(=O)=O)cc1)CCc1ccc(NS(C)(=O)=O)cc1 [Dofetilide]
hERG
  hERG blocker potency (in words): high potency hERG blocker
[1]
  incidence of TdP: 0.3-10.5%

## Cc1cn(-c2cc(NC(=O)c3ccc(C)c(Nc4nccc(-c5cccnc5)n4)c3)cc(C(F)(F)F)c2)cn1 [Nilotinib]
IKr channel (hERG)
  voltage dependency of the tail current inhibition (in words): not voltage dependent
IKr
  IC50: 700 nM
